Literature values in patent US20170022147A1, “FUMARATE COMPOUNDS, PHARMACEUTICAL COMPOSITIONS THEREOF, AND METHODS OF USE” (priority 2015, published 2017).

Conditions: ALS patients

In the case of `Nc1nc2ccc(OC(F)(F)F)cc2s1` [riluzole], the extension of survival is given as “about three”.
